Data on 1 compound can be found in ChEMBL document CHEMBL5104138, “Discovery of pyridyl urea sulfonamide inhibitors of NaV1.7” (Bioorg Med Chem Lett, 2022).

By UniProt entry, the sequences of proteins in these tests, tags left out.
UniProt Q15858, whole entry: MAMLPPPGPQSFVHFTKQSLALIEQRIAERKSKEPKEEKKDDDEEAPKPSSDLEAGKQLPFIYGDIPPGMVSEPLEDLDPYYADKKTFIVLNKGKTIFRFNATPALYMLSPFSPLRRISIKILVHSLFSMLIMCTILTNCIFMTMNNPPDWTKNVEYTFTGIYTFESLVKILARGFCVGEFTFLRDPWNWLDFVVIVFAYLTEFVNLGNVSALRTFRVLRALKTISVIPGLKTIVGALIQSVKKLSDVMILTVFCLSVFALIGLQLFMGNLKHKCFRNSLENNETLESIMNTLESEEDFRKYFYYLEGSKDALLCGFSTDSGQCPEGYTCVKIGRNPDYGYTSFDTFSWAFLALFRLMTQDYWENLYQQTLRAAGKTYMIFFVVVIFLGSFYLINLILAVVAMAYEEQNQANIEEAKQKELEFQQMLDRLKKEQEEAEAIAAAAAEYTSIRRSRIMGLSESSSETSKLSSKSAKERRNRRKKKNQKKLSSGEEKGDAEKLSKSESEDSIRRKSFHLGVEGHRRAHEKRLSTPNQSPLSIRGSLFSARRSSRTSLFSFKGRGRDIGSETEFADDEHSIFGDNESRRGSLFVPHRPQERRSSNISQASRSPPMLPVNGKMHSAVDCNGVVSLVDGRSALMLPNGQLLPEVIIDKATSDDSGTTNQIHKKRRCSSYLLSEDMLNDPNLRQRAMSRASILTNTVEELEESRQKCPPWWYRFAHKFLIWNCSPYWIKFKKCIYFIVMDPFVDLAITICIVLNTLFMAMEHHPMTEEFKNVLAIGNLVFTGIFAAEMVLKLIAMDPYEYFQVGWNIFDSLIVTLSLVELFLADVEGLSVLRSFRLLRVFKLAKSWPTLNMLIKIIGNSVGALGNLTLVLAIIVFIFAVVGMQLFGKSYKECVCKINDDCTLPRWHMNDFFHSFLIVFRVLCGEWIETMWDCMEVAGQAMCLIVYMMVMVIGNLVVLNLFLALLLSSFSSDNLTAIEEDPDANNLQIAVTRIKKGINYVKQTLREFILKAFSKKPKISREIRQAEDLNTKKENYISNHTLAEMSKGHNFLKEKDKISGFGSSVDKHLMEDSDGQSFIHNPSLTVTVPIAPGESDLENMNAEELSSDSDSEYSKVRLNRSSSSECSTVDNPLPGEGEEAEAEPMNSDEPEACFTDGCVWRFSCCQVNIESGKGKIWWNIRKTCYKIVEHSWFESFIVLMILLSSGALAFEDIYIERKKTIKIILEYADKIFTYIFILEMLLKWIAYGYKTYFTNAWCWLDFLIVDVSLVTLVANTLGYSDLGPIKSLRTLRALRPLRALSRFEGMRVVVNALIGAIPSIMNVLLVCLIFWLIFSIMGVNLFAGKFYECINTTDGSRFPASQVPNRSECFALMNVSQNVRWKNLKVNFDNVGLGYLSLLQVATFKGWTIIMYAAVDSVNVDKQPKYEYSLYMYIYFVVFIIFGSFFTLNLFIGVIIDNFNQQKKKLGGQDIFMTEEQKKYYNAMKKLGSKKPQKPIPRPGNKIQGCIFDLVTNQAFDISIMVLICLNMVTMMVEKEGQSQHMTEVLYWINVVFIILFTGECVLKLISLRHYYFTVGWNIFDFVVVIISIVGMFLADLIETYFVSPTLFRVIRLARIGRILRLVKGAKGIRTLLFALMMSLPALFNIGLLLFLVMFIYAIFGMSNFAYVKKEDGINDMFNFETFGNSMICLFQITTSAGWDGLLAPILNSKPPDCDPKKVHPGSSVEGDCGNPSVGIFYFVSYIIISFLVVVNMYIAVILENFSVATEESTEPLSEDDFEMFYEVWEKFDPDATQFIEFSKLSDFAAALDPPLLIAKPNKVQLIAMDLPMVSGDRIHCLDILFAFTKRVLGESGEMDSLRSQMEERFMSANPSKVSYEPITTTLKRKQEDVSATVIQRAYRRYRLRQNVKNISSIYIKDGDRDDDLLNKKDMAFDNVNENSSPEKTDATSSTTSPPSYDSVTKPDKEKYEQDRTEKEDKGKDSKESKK

The term IC50 denotes the point on the concentration scale where inhibition reaches its midpoint. Low readings indicate inhibition by little substance, high ones a need for much substance.

This assay deals with Sodium channel protein type 9 subunit alpha (Homo sapiens, UniProt Q15858). The assay is described as follows: Inhibition of human Nav1.7 by PatchXpress assay.

As to `CNC(=O)N(c1ccc(S(=O)(=O)Nc2ncccn2)cn1)c1cc(F)c(-c2ccc(F)c(OC(F)(F)F)c2)cc1OC`, the IC50 turned out to be 19 nM.
